The assay concerns the target Recombinant N-hexa-His-tagged human Hsp70 (HSPA1A) (human) (UniProt P0DMV8). As to the kind of experiment: SPR; Biacore X100, CM5 chip; Hsp70 immobilised by amine coupling; αSyn as analyte at 0-320 µM; 15°C; PBS, 0.05% Surfactant P20, 2 mM MgCl2, 2.5 mM ATP; steady-state fit, 1:1 model.

pKd: −log10 of the molar value.

As to “Human Wt α-Synuclein (from UniProt P37840 1-140) (natural protein; other documents disagree on this pair)”, the pKd (in general, −log10 of the Kd, conventionally taken in molar units) is 3.72.

For the origin of these results see paper PMC4386917.
